Earlier results on one compound are cited in patent US5866346A (priority 1997, dated 1999).

Amino acid sequences for entries named in this document (tags omitted). A change or cut given only in a name is not applied to a line headed by its entry.
UniProt P41146: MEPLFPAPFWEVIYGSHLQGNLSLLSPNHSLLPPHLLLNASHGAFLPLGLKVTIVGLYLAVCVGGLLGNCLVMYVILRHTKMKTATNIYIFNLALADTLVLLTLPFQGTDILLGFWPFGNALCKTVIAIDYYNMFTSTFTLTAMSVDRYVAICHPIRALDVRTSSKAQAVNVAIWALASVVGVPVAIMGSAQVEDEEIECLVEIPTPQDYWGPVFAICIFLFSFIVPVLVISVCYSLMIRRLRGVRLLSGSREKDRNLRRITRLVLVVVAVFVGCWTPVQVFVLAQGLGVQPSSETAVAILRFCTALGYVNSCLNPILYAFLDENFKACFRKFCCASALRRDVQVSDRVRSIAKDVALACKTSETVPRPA

This data set addresses novel opioid receptor-like receptor (XOR1, hORL-I) (Homo sapiens, UniProt P41146). Conditions: Mollereau et al., FEBS Lett. 341:33-38 (1994); cited from earlier work.

On to `CO[C@]12CC[C@@]3(C[C@@H]1C(C)(C)O)[C@H]1Cc4ccc(O)c5c4[C@@]3(CCN1CC1CC1)[C@H]2O5`, for which the “effect on adenylyl cyclase in CHO-K1 cells transfected with the receptor clone” value is on record as “antagonized the inhibitory action of etorphine”.
